# Results published in patent publication US20200024370A1.
# Molecular target: Zn-NpuN, N-terminal Npu DnaE intein segment (cysteine-free) with the sensitivity-enhancing (zinc-binding) motif GDGHG at its N-terminus, coupled to SulfoLink resin (Nostoc punctiforme)
# Assay: cell-based or functional assay
substance,measurement,value
"NpuC^HN-MBP, C-terminal intein segment with serine to histidine mutation fused to maltose binding protein (from UniProt P0AEX9 27-392)","on-column C-terminal cleavage after shift to pH 6.2, 5 hours (SDS-PAGE)",> 80%
